Drawing on ChEMBL document CHEMBL4477237, “Structure-Based Design of β5c Selective Inhibitors of Human Constitutive Proteasomes” (J Med Chem, 2016), this text covers IC50 and pIC50(app) for 1 compound.

Sequences of proteins named here, by UniProt entry; tags and fusion partners are left off. A change or cut given only in a name is not applied to a line headed by its entry.
UniProt P28074: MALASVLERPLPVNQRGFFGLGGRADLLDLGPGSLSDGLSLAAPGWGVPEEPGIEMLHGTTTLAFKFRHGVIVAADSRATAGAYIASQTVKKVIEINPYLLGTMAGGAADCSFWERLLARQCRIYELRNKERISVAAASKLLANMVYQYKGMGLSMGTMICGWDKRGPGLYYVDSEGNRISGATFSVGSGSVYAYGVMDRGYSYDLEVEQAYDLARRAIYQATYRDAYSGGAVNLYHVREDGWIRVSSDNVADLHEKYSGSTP

Each structure is given as a SMILES string.

The target in assay [1] is Proteasome Macropain subunit MB1 (Homo sapiens, UniProt P28074). As to the kind of experiment: Inhibition of catalytic activity of constitutive proteasome 20s subunit beta5 in human Raji cells incubated for 1 hr by BODIPY(TMR)-NC-005-VS probe based competitive activity based protein profiling assay. It is filed as cell-based.
Assay [2] concerns the target Proteasome subunit beta type-8 (β5i, LMP7) (Homo sapiens) (UniProt P28062). Nature of the assay: Inhibition of catalytic activity of immunoproteasome 20s subunit beta5 in human Raji cells incubated for 1 hr by BODIPY(TMR)-NC-005-VS probe based competitive activity based protein profiling assay.

Broadly, the IC50 is the concentration at which inhibition is half-maximal. A low value points to higher potency.

As to `CC(C)C[C@H](NC(=O)[C@H](Cc1ccccc1)NC(=O)[C@H](Cc1ccccc1)NC(=O)[C@H](Cc1ccccc1)N=[N+]=[N-])C(=O)[C@@]1(C)CO1`, the half-maximal inhibitory concentration (IC50) in assay [1] came to 2.1 nM. For the same compound, the pIC50(app) worked out at 8.67 in assay [1] and 8.26 in assay [2].
